Results: patent publication US20040253206A1 (priority 1999, published 2004)

Settings: deionized water, ultrasonicated 15 minutes, filtered, lyophilized

Substance: 2′-Succinamidyl-PEG2-amine-paclitaxel trifluoroacetate [Compound 3]
- water solubility (by mass): 7400 µg/mL
